Values of other authors in patent US20110118243A1, “ANTI-INFLAMMATORY DRUG DELIVERY SYSTEM” (priority 2008, published 2011).

Details: horse, over 24 hours

- Share of administered dose accounted for by metabolites oxyphenbutazone and γ-hydroxyoxyphenbutazone: 25-30%
Structure (SMILES): CCCCC1C(=O)N(c2ccccc2)N(c2ccccc2)C1=O [phenylbutazone, 4-butyl-diphenyl-3,5-pyrazoidinedione]
